Laboratory results reported in patent US20240208954A1, “OXADIAZOLE COMPOUND, PREPARATION METHOD THEREFOR, PHARMACEUTICAL COMPOSITION AND USE THEREOF” (SHANGHAI INSTITUTE OF MATERIA MEDICA, CHINESE ACADEMY OF …, priority 2020, published 2024).

By UniProt entry, the sequences of proteins in these tests, tags left out.
UniProt P21453, whole entry: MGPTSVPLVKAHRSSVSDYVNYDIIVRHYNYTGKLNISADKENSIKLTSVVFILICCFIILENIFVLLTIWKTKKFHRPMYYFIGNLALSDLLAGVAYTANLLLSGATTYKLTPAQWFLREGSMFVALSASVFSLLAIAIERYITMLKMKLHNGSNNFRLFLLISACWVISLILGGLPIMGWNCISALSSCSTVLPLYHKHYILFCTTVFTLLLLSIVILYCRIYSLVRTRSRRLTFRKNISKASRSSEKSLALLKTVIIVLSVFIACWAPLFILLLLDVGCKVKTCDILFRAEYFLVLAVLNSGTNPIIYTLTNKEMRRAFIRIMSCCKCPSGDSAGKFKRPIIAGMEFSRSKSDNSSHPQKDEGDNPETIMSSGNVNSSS
UniProt Q99500, whole entry, species assumed: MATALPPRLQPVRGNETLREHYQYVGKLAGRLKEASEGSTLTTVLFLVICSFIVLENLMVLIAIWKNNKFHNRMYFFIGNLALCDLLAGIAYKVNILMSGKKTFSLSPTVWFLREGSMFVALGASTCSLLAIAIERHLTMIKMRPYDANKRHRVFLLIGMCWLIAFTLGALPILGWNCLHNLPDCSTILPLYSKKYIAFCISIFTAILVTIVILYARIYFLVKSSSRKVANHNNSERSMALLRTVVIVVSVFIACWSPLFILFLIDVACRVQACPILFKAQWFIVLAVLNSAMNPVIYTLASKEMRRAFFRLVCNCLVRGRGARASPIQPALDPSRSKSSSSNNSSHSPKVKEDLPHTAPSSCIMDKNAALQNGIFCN

Assays:
S1PR1 = target: T1, S1PR1 (Homo sapiens, UniProt P21453); assay: Agonistic activity test on S1P receptors, FLIPR, CHO-K1/Ga15/EDG1 cells; assay type: cell-based; details: FLIPR agonist mode
T1 construct: host or cells: CHO-K1 co-expressing Ga15
Procedure: (§1) Instrument: FLIPR™ TETRA (Molecular Device)
Experimental materials: CHO-K1/Ga15/EDG1 cells constructed by GenScript autonomously.
(§2) Sample processing: Before the experiment, the working solution with the corresponding concentration was prepared by diluting with GPCR dilution buffer.
(§3) After 18-20 hours, the cell culture plat was taken out and added with dye working solution, and then the plate was placed in a 37° C./5% CO2 incubator for 1 hour, and finally equilibrated at room temperature for 15 minutes. Positive agonist working solution was added, and RFU values were detected and recorded. […] The positive agonist working fluid was added to the cell culture plate at the 21st second. […]
(§4) Data processing: Raw data were obtained via ScreenWorks (version 3.1) and saved as *FMD files on the Kingsray computer network system. Data were collected and analyzed using Excel and GraphPad Prism 6 software programs. For each well, the average fluorescence intensity value from 1 to 20 seconds was used as the baseline, and the maximum fluorescence intensity value from 21 to 120 seconds minus the minimum fluorescence intensity value from 21 to 120 seconds was the relative fluorescence intensity value (ARFU), from which the percentage activation or inhibition can be calculated based on the following equation. […]

S1PR3 = S1PR3 (Homo sapiens, UniProt Q99500); assay: Agonistic activity test on S1P receptors, FLIPR; assay type: cell-based; details: FLIPR agonist mode
Procedure: as §1, §2, §3, §4
The data was analyzed using GraphPad Prism 6 with a four-parameter equation to calculate the EC50 and IC50 values. […]

FTY720-P [reference compound]
EC50 (S1PR1): 39.3 nM
EC50 (S1PR3): 4520 nM
